Screening results (PubChem)
This is a sample that favours compounds with a hit; in the whole collection about 1.3% have one here.
UUG fidelity: alters start codon recognition fidelity in yeast. S. cerevisiae UUG-firefly luciferase reporter, luminescence/redox ratio. AID 602363. activity score, % at 18.7 µM. hit rate 0.13% among 350,000;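 active = replicate mean at a twofold rise or more, about +100% in these data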;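 note: firefly luciferase made from a UUG start codon reports start codon fidelity; reporter light over untreated wells divided by growth signal over untreated wells; some hits fall short of that in this replicate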
EWS-Fli block: inhibitors of EWS/Fli oncoprotein transcriptional activity. A673 NR0B1-luciferase reporter, viability-normalised. inhibition, % at 12.6 µM. 350,000 compounds, 0.67% hits. AID 651661;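 active = mean inhibition of at least 50% after viability correction, with every replicate also passing that limit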;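 also: firefly luciferase signal divided by Alamar Blue viability fluorescence both relative to DMSO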
miR122 inh: inhibitors of miR-122 in Huh7 cells; 340,000 compounds, 0.3% hits; activation (reporter increase), % at 12.5 µM; AID 602342; Huh7 miR-122 Renilla luciferase sensor, 48 h; neutral wells = 0, positive control = 100;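 active = mean replicate activation score at least 90 and every replicate individually at or above 90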;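 also: higher luciferase means less miR-122 activity so hits act as miR-122 inhibitors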
LGR2 inh: blocks bursicon-induced cAMP signaling via Drosophila LGR2; HEK293 LGR2, CRE-luciferase, bursicon-stimulated, 4 h; inhibition, % at 9.99 µM; 380,000 compounds, 0.35% hits; AID 720647;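 active = drop in luminescence signal, shown as inhibition above about 50% in the replicate tests, limit read from the data, passing the limit was not always enough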;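 also: agonist challenge used bursicon conditioned medium at about half maximal strength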
F508del corr: CFTR F508del correction in bronchial cells | CFBE cells, YFP halide quenching; stimulated with forskolin plus potentiator P3; % fluorescence drop versus neutral controls | activity (quench increase), % at 7.58 µM | 350,000 compounds, 0.36% hits | AID 720511;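 active = mean added fluorescence quench of at least 8% versus neutral control, with both replicates also reaching 8%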;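 also: cells transiently co-express mutant CFTR-F508del with the halide-sensitive YFP; corrector assay measuring rescue of mutant channel to the surface after 24 h compound exposure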
PglD inh: PglD (C. jejuni) enzyme inhibition; purified PglD enzyme, DTNB colorimetric CoA detection; inhibition, % at 12.5 µM; 360,000 compounds, 0.098% hits; AID 602405; in the data active = inhibition above about 16%, passing the limit was not always enough
DNA binding: binds DNA displacing acridine orange | shares compounds with EWS-Fli block | salmon sperm DNA acridine orange fluorescence polarization | AC35, µM (doses to about 68 µM), for inactives: at the highest dose activity change, negative = DNA binding | 640 compounds, 2% hits | AID 720586;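 active = fitted curve reaches a 35% signal fall AC35 below twice the sample's top valid tested dose, actives reach about 48 µM in these data; inactive = the rest, including activity in the rising direction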;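 also: lower polarization ratio signals compound binding to DNA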
* marks the source's active call; other numbers are inactive results; x = not tested or not shown; [ ] = another dose, or the depositor's remark.

structure,UUG fidelity,EWS-Fli block,miR122 inh,LGR2 inh,F508del corr,PglD inh,DNA binding
C[C@@H]1CCCCO[C@H](CN(C)Cc2ccc(C(=O)Nc3ccccc3N)cc2)[C@@H](C)CN([C@H](C)CO)C(=O)c2cc(NS(=O)(=O)c3ccc(Cl)cc3)ccc2O1,0,61*,53[16.7 µM],10,2,2,-13%
C[C@H]1CN([C@@H](C)CO)C(=O)c2cc(NS(=O)(=O)c3ccc(Cl)cc3)ccc2O[C@@H]1CN(C)Cc1ccc(C(=O)Nc2ccccc2N)cc1,5,34,10[16.7 µM],-2,0,5,x
COc1cccc(C(=O)Nc2ccc3c(c2)C(=O)N(C)C[C@H](OC)[C@H](C)CN[C@@H](C)CO3)c1,x,-7,x,-23,0,-1,x
C[C@H]1CN([C@@H](C)CO)C(=O)c2cc(NC(=O)Nc3ccc4c(c3)OCO4)ccc2O[C@@H]1CN(C)C(=O)Nc1ccccc1,-1,-5,3[16.7 µM],-8,1,1,x
Cc1ccc(S(=O)(=O)Nc2ccc3c(c2)C(=O)N([C@H](C)CO)C[C@@H](C)[C@@H](CN(C)Cc2ccc(C(=O)Nc4ccccc4N)cc2)O3)cc1,22,51*,71[16.7 µM],7,-1,4,-10%
C[C@H](CO)N1C[C@H](C)[C@H](CN(C)C(=O)C2CC2)Oc2ncc(C#CC3(O)CCCC3)cc2C1=O,x,-1,-9[16.7 µM],-13,1,x,x
CC(C)(C)c1ccc(Oc2ccc(NC(=O)C3CC=CCC3C(=O)O)cc2)cc1 (configuration not stated),-8,70*,-12,25,-5,-5,-14%
C[C@@H]1CN([C@H](C)CO)C(=O)c2cc(NC(=O)Nc3ccccc3)ccc2O[C@@H](C)CCCCO[C@@H]1CN(C)S(=O)(=O)c1ccc(Cl)cc1,-7,-3,-2[16.7 µM],5,-4,-1,x
Cc1c(CC(=O)NCCCC(=O)O)c(=O)oc2cc3c(cc12)CCC(C)(C)O3,-3,66*,1,1,-1,4,-13%
COC(=O)Cc1ccc(NC(=O)c2ccccc2Cl)cc1,x,66*,x,-26,x,x,-11%
CCOC(=O)CNC(=O)CSc1nnc(-c2ccc(OC)cc2)n1CC,12,x,5,x,x,-4,x
O=C(/C=C/c1ccc(Cl)cc1Cl)N(Cc1ccccc1)C1CCS(=O)(=O)C1 (configuration not stated),-17,x,-5,-1,x,3,x

Continued.
structure,UUG fidelity,EWS-Fli block,miR122 inh,LGR2 inh,F508del corr,PglD inh,DNA binding
O=C(/C=C/c1ccc(Cl)cc1Cl)N(Cc1ccc(Cl)cc1)C1CCS(=O)(=O)C1 (configuration not stated),1,70*,-3,-2,x,-4,-10%
O=C(CCc1ccccc1)NC(c1cccs1)c1cc(Cl)c2cccnc2c1O (configuration not stated),x,58*,x,23,-4,x,-4%
COC(=O)C[C@@H]1CC[C@@H]2[C@H](COc3ccc(NC(=O)Nc4cccc(C#N)c4)cc3C(=O)N2C)O1,5,65*,-18[16.7 µM],29,0,2,1%
COC(=O)C[C@@H]1CC[C@H]2[C@@H](COc3ccc(NC(=O)Nc4ccc(C#N)cc4)cc3C(=O)N2C)O1,1,13,-3[16.7 µM],-6,-1,2,x
COC(=O)C[C@@H]1CC[C@@H]2[C@H](COc3ccc(NC(=O)Nc4ccc(C#N)cc4)cc3C(=O)N2C)O1,-1,53*,-1[16.7 µM],0,1,4,-2%
CO[C@H]1CN(C)C(=O)c2ccc(NC(=O)c3nc4ccccc4s3)cc2OC[C@@H](C)NC[C@@H]1C,x,-8,x,-16,2,3,x
O=C(Nc1cccc(Oc2ccc3c(c2)C(=O)NC3=O)c1)c1cccs1,x,74*,x,17,x,x,-6%
CCCCn1c(N)c(N(CCOC)C(=O)c2ccc(N3CCCC3=O)cc2)c(=O)[nH]c1=O,5,-1,-6,-11,0,-3,x
CCCCNC1=CC(=O)C(=O)c2ccccc21,x,54*,x,11,-5,x,2%
CCOC(=O)c1c(-c2ccc(C)cc2)csc1NC(=O)CCN1CCOCC1,-4,81*,4,-2,x,4,-9%

Sorted by value in UUG fidelity (descending): 3 of the compounds above
compound,UUG fidelity,miR122 inh,LGR2 inh,F508del corr,PglD inh,DNA binding
CCCCn1c(N)c(N(CCOC)C(=O)c2ccc(N3CCCC3=O)cc2)c(=O)[nH]c1=O,5,-6,-11,0,-3,x
O=C(/C=C/c1ccc(Cl)cc1Cl)N(Cc1ccc(Cl)cc1)C1CCS(=O)(=O)C1 (configuration not stated),1,-3,-2,x,-4,-10%
CCOC(=O)c1c(-c2ccc(C)cc2)csc1NC(=O)CCN1CCOCC1,-4,4,-2,x,4,-9%
